Assays:
[1] = test system: haematopoietic progenitor/stem cells in Balb/c mice; assay: Circulating haematopoietic progenitor/stem cells (CFU) after IL-8 mimetic in Balb/c mice; assay type: in vivo, mouse; conditions: subcutaneous 1-25 mg/kg, female Balb/c mice, 30 minutes to 48 hours, FIGS. 7-8
Experimental: (§1) The experiments consisted of the following groups of female Balb/c mice (Charles River Lab's): (1) an untreated control group of 10 mice; and (2) test groups of 10 mice each.
(§2) The control and test groups of 20-23 g mice were randomly grouped in appropriately labeled cages and identified by cage markings and ear punch. The test groups were tested one time subcutaneously with the test analog at doses of 1, 5, 10, 15, 20, or 25 mg/kg in volumes of approximately 200 μl. The mice were anesthetized immediately before blood collection. Blood samples were obtained from the mice at 30 minutes, 1 hour, 4 hours, 6 hours, 24 hours and/or 48 hours after administration of the test mimetic. […]
The number of haematopoietic progenitor/stem cells was determined as follows. The volume of blood in each microfuge tube was determined and nine times the volume of ammonium chloride was added. […] The number of nucleated cells per mL of blood was counted, and all cells were plated in duplicate in standard methylcellulose to determine the number of CFUs including the colony-forming unit granulocyte-macrophage (CFU-GM), the burst-forming unit erythroid (BFU-E), and the colony-forming unit granulocyte erythrocyte macrophage megakaryocyte (CFU-GEMM). […] The total CFU per mL of blood from the individual mice was determined. […]

[2] = test system: circulating neutrophils in Balb/c mice; assay: Circulating neutrophil counts after IL-8 mimetic in Balb/c mice; assay type: in vivo, mouse; conditions: subcutaneous 1-25 mg/kg, female Balb/c mice, 30 minutes to 24 hours, FIGS. 5-6
Experimental: as §1
as §2, with “mimetic. Blood was collected with an EDTA S-Monovette syringe (Sarstedt) and 25 G needle through a cardiac puncture. Blood was mixed gently by 5 inversions then expelled into a microcentrifuge tube. Differential and CBC analyses were performed on a Hemavet 850 FS (Drew Scientific).” for “mimetic.”
The test mimetic was administered by subcutaneous injection into female Balb/c mice in amounts of 1, 5, 10, 15, 20, or 25 mg/kg. […] Complete blood counts and differentials were determined using a Hemavet. […]
FIG. 6 describes the kinetics of the rise in circulating neutrophil counts in response to the administration of the test mimetic according to some embodiments. […] Complete blood counts and differentials were determined using a Hemavet®. […]

[3] = test system: IL-8 receptor (differentiated HL-60 cells); assay: Calcium mobilization in differentiated HL-60 cells, Fluo-4/AM; assay type: cell-based; conditions: over control wells (plain medium = 1.0), about 10 to 200 μg/ml, listed as 1647
Procedure, shortened: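 HL-60 cells loaded with 4 μM Fluo-4/AM for 45 min at 37° C, then read in Tyrode's salt solution (1 mM CaCl2) by fluorescence plate reader. Values are fluorescence normalized to plain medium as 1.0, native chemokine as control; mean of at least duplicate wells.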

For `CC[C@H](C)[C@H](NC(=O)[C@H](Cc1ccccc1)NC(=O)[C@H](CCC(N)=O)NC(=O)[C@H](C)NC(=O)[C@H](CCCNC(=N)N)NC(=O)[C@H](CC(C)C)NC(=O)[C@H](CCC(=O)O)NC(=O)[C@H](CCCCN)NC(=O)[C@H](C)NC(=O)[C@@H](N)CO)C(=O)N[C@@H](CCCCN)C(=O)N[C@H](C(=O)N[C@@H](Cc1ccc(O)cc1)C(=O)N[C@@H](CO)C(=O)N[C@@H](CCCCN)C(=O)NCCCCCCCCCCC(=O)N[C@@H](CC(N)=O)C(=O)N[C@@H](Cc1c[nH]c2ccccc12)C(=O)N[C@H](C(=O)N[C@@H](CCC(N)=O)C(=O)N[C@@H](CCCNC(=N)N)C(=O)N[C@H](C(=O)N[C@H](C(=O)N[C@@H](CCC(=O)O)C(=O)N[C@@H](CCCCN)C(=O)N[C@@H](Cc1ccccc1)C(=O)N[C@@H](CC(C)C)C(=O)N[C@@H](CCCCN)C(=O)N[C@@H](CCCNC(=N)N)C(=O)N[C@@H](C)C(=O)N[C@@H](CCC(=O)O)C(=O)N[C@@H](CC(N)=O)C(N)=O)C(C)C)C(C)C)C(C)C)[C@@H](C)O` [SEQ ID NO:1647], the “circulating haematopoietic progenitor/stem cells (CFU) (in words)” value [1] was “increasing the number”, the “circulating neutrophils (in words)” value [2] was “increasing the number” and the “Average fold increase in calcium mobilization” value [3] was 57.3.

From US20070160574A1, “Design of CXC chemokine analogs for the treatment of human diseases” (priority 2000, published 2007)
